For this assay, the species on record is Homo sapiens. In words: Selectivity ratio of IC50 for human recombinant MAOA to IC50 for human recombinant MAOB.

This note sets out measurements from ChEMBL document CHEMBL1641485, “Chromone 3-phenylcarboxamides as potent and selective MAO-B inhibitors” (Bioorg Med Chem Lett, 2011).

In the case of `O=C(O)c1coc2ccccc2c1=O`, the Ratio IC50 was greater than 2080.
